The source of these data is US20230313313A1, “BIOMARKERS FOR CANCER THERAPY USING MDM2 ANTAGONISTS” (OTSUKA PHARMACEUTICAL CO., LTD., priority 2020, published 2023).

Experiment [1] concerns SJSA-1. As to the kind of experiment: Protocol A: SJSA-1 growth inhibition, sulphorhodamine B (SRB) method. Particulars: Homo sapiens, SJSA-1, 72 h, read-out: SJSA-1 IC50 (Protocol A). On the technique in general: In SRB staining, fixed cells bind dye roughly in proportion to their protein.
The test system of experiment [2] is SJSA-1. As to the kind of experiment: Protocol B: SJSA-1 CellTiter-Glo Luminescent Cell Viability Assay. Particulars: Homo sapiens, SJSA-1, 72 h, read-out: SJSA1 IC50 (Protocol B). (In general: ATP-based viability assays read luminescence as a measure of living cells.)

In the case of `CC(C)(O)c1cc(F)c2c(c1)C(=O)N(Cc1ccc(Cl)cc1)[C@@]2(OCC1(CO)CC1)c1ccc(Cl)cc1` [Example 2, (3R)-3-(4-chlorophenyl)-2-[(4-chlorophenyl)methyl]-4-fluoro-3-{[1-(hydroxymethyl)cyclopropyl]methoxy}-6-(2-hydroxypropan-2-yl)-2,3-dihydro-1H-isoindol-1-one], the results for the IC50 in the experiment on SJSA-1 [1] and with SJSA-1 [2] were 330 nM and 460 nM, respectively. For the molecule `CC[C@@](O)(c1cc(F)c2c(c1)C(=O)N(Cc1ccc(C#N)cc1)[C@@]2(O[C@H]1C[C@@H](O)C1)c1ccc(Cl)cc1)C1CCN(C)CC1` [Example 130, 4-{[(1R)-1-(4-chlorophenyl)-7-fluoro-5-[(1S)-1-hydroxy-1-(1-methylpiperidin-4-yl)propyl]-3-oxo-1-[cis-3-hydroxycyclobutoxy]-2,3-dihydro-1H-isoindol-2-yl]methyl}benzonitrile], in the experiment with SJSA-1 [2], the IC50 worked out at 230 nM.

A word on the IC50: it is the concentration that gives 50% inhibition.
